Results as given in US4354977A, “Phosphonothioate immunogens” (dated 1982).

What follows are molecules tested on antiserum formed in response to the immunogen of Example 4 (assay: Cross-reactions of an antiserum formed in response to the immunogen of Example 4). Settings: antiserum to immunogen of Example 4.

**Q.** How did the “% Cross-reaction” value turn out when CC(=O)[C@H]1CC[C@H]2[C@@H]3CC=C4C[C@@H](OS(=O)(=O)O)CC[C@]4(C)[C@H]3CC[C@]12C was run?
**A.** The value was under 0.1%.

**Q.** For CC(=O)[C@H]1CC[C@H]2[C@@H]3CCC4=CC(=O)CC[C@]4(C)[C@H]3CC[C@]12C, which “% Cross-reaction” value is on record?
**A.** Its value is under 0.1%.

**Q.** For C[C@]12CC[C@H]3[C@@H](CCC4=CC(=O)CC[C@@]43C)[C@@H]1CC[C@@H]2O, which “% Cross-reaction” value is on record?
**A.** Its value is under 0.1%.

**Q.** With C[C@]12CC[C@@H]3c4ccc(OS(=O)(=O)O)cc4CC[C@H]3[C@@H]1CC[C@@H]2O as the molecule, how does the “% Cross-reaction” value read?
**A.** Its value is under 0.1%.

**Q.** With C[C@]12CC[C@H](OS(=O)(=O)O)CC1=CC[C@@H]1[C@@H]2CC[C@]2(C)C(=O)CC[C@@H]12 as the molecule, how does the “% Cross-reaction” value read?
**A.** The value was under 0.1%.

**Q.** C[C@]12CC[C@@H]3c4ccc(O[C@@H]5O[C@H](C(=O)O)[C@@H](O)[C@H](O)[C@H]5O)cc4CC[C@H]3[C@@H]1CCC2=O was tested. Which “% Cross-reaction” value did it give?
**A.** The value was 3.2%.

**Q.** With C[C@H](O)[C@H]1CC[C@H]2[C@@H]3CC[C@@H]4C[C@H](O[C@@H]5O[C@H](C(=O)O)[C@@H](O)[C@H](O)[C@H]5O)CC[C@]4(C)[C@H]3CC[C@]12C as the molecule, how does the “% Cross-reaction” value read?
**A.** The value was under 0.1%.

**Q.** For C[C@]12CC[C@H](O)CC1=CC[C@@H]1[C@@H]2CC[C@]2(C)C(=O)CC[C@@H]12, which “% Cross-reaction” value is on record?
**A.** The value was under 0.1%.

**Q.** With C[C@]12CC[C@H](O[C@@H]3O[C@H](C(=O)O)[C@@H](O)[C@H](O)[C@H]3O)CC1=CC[C@@H]1[C@@H]2CC[C@]2(C)C(=O)CC[C@@H]12 as the molecule, how does the “% Cross-reaction” value read?
**A.** The value was under 0.1%.

**Q.** Which “% Cross-reaction” value does the source give for C[C@]12CCC(=O)C=C1CC[C@@H]1[C@@H]2[C@@H](O)C[C@@]2(C)[C@H]1CC[C@]2(O)C(=O)CO here?
**A.** The value was under 0.1%.

**Q.** Which “% Cross-reaction” value does the source give for C[C@]12CC[C@@H]3c4ccc(O)cc4CC[C@H]3[C@@H]1CC[C@@H]2O here?
**A.** The value was 0.5%.

**Q.** CC(=O)[C@@]1(O)CC[C@H]2[C@@H]3CCC4=CC(=O)CC[C@]4(C)[C@H]3CC[C@@]21C was tested. Which “% Cross-reaction” value did it give?
**A.** Its value is under 0.1%.

**Q.** C[C@]12CC[C@@H](OS(=O)(=O)O)C[C@@H]1CC[C@@H]1[C@@H]2CC[C@]2(C)C(=O)CC[C@@H]12 was tested. Which “% Cross-reaction” value did it give?
**A.** Its value is under 0.1%.

**Q.** For C[C@]12CC[C@@H]3c4ccc(O)cc4CC[C@H]3[C@@H]1CCC2=O, which “% Cross-reaction” value is on record?
**A.** Its value is 57%.

**Q.** Which “% Cross-reaction” value does the source give for C[C@]12CC[C@@H]3c4ccc(OS(=O)(=O)O)cc4CC[C@H]3[C@@H]1CCC2=O here?
**A.** Its value is 100%.

**Q.** How did the “% Cross-reaction” value turn out when C[C@]12CC[C@@H]3c4ccc(O)cc4CC[C@H]3[C@@H]1C[C@@H](O)[C@@H]2O was run?
**A.** The value was under 0.1%.

**Q.** C[C@]12CCC(=O)C=C1CC[C@@H]1[C@@H]2CC[C@]2(C)C(=O)CC[C@@H]12 was tested. Which “% Cross-reaction” value did it give?
**A.** Its value is under 0.1%.

Same assay, conditions: antiserum to immunogen of Example 4; no ascorbic acid

**Q.** How did the “% Cross-reaction” value turn out when C[C@]12CC[C@@H]3c4cc(O)c(O)cc4CC[C@H]3[C@@H]1CCC2=O was run?
**A.** The value was 1.1%.

Same assay, conditions: antiserum to immunogen of Example 4; with ascorbic acid

**Q.** Which “% Cross-reaction” value does the source give for C[C@]12CC[C@@H]3c4cc(O)c(O)cc4CC[C@H]3[C@@H]1CCC2=O here?
**A.** The value was 9%.
